We go through eight compounds from ChEMBL document CHEMBL4196199, “Optimization of a Series of Mu Opioid Receptor (MOR) Agonists with High G Protein Signaling Bias” (2018).

Some compounds may have been tested in ways that are not shown here.

The nature of data set [1]: Stability in human hepatic microsomes assessed as half life at 1 uM by LC-MS/MS method. The settings on record: Liver.
Data set [2] in a line: Stability in mouse hepatic microsomes assessed as half life at 1 uM by LC-MS/MS method. Conditions: Liver.

`O=c1[nH]c2cc(Cl)ccc2n1C1CCN(Cc2ccccc2Cl)CC1`: the t1/2 turned out to be 6 min in data set [1] and 3 min in data set [2].
Turning to `O=c1[nH]c2ccc(Cl)cc2n1C1CCN(Cc2ccccc2Cl)CC1`, the t1/2 in data set [1] was 17 min; in data set [2], 4 min.
On the same counts, the results for `CC(c1ccc2c(c1)OCO2)N1CCC(n2c(=O)[nH]c3ccccc32)CC1` (stereo unspecified) are 16 min and 1 min.
For `CC(c1ccc(OC(F)(F)F)cc1)N1CCC(n2c(=O)[nH]c3ccccc32)CC1` (stereo unspecified) the same measures were 120 min and 14 min.
On the same counts, the results for `O=c1[nH]c2cc(Cl)c(Cl)cc2n1C1CCN(Cc2ccc(Br)cc2F)CC1` are 73 min and 31 min.
Take `O=c1[nH]c2cc(Cl)ccc2n1C1CCN(Cc2ccc(Br)cc2F)CC1`: the t1/2 in data set [1] came out at 84 min; in data set [2], 17 min.
On the same counts, the results for `O=c1[nH]c2cc(Cl)c(Cl)cc2n1C1CCN(Cc2ccc(Br)cc2)CC1` are 233 min and 35 min.
On the same counts, the results for `O=c1[nH]c2c(Cl)cccc2n1C1CCN(Cc2ccccc2Cl)CC1` are 8 min and 3 min.
